The record followed here is patent US8772480B2, “Inhibitors of PI3 kinase and/or mTOR” (priority 2009, dated 2014).

Some results are limits rather than exact numbers.

The target in this experiment is mammalian target of rapamycin (mTOR) (Homo sapiens (Human), UniProt P42345). The following applies: read-out: mTOR IC50.
For `COc1cncc(Nc2ncc(C(C)(C)O)cc2-c2nc(C)nc(N)n2)c1` [Example 353, 2-(5-(4-Amino-6-Methyl-1,3,5-Triazin-2-yl)-6-(5-Methoxypyridin-3-Ylamino)Pyridin-3-yl)Propan-2-ol], the IC50 is 2.12 µM.
As for `Cc1nc(N)cc(-c2cccnc2Nc2cnc(Cl)c(NS(=O)(=O)N(C)C)c2)n1` [Example 375, N-(5-(3-(6-Amino-2-Methylpyrimidin-4-yl)Pyridin-2-Ylamino)-2-Chloropyridin-3-yl)-N,N-Dimethylaminosulfamide], the figure is 3.3 µM; as for `Cc1nc(N)nc(-c2cc(F)cnc2Nc2cncc(F)c2)n1` [Example 186, 4-(5-Fluoro-2-(5-Fluoropyridin-3-Ylamino)Pyridin-3-yl)-6-Methyl-1,3,5-Triazin-2-Amine], greater than 10 µM.
For `Cc1nc(N)nc(-c2cccnc2Nc2cc[nH]c(=O)c2)n1` [Example 263, 4-(3-(4-Amino-6-Methyl-1,3,5-Triazin-2-yl)Pyridin-2-Ylamino)Pyridin-2(1H)-One], the IC50 was greater than 10 µM.
`COc1ccc(Nc2ncc(CN3CCNCC3)cc2-c2nc(C)nc3[nH]cnc23)cn1` [Example 84, N-(6-methoxypyridin-3-yl)-3-(2-methyl-9H-purin-6-yl)-5-(piperazin-1-ylmethyl)pyridin-2-amine]: the IC50 was greater than 10 µM.
As for `COc1ccc(Nc2ncc(CNc3cccnn3)cc2-c2nc(C)nc3[nH]cnc23)cn1` [Example 80, N-((6-(6-methoxypyridin-3-ylamino)-5-(2-methyl-9H-purin-6-yl)pyridin-3-yl)methyl)pyridazin-3-amine], the IC50 was greater than 10 µM.
The figure for `COc1ccc(Nc2nc3ccccc3cc2-c2nc(C)nc(N)n2)cn1` [Example 238, 3-(4-Amino-6-Methyl-1,3,5-Triazin-2-yl)-N-(6-Methoxypyridin-3-yl)Quinolin-2-Amine] is greater than 10 µM; for `C=Cc1cnc(Nc2ccc(OC)nc2)c(-c2nc(C)nc3[nH]cnc23)c1` [Example 73, N-(6-methoxypyridin-3-yl)-3-(2-methyl-9H-purin-6-yl)-5-vinylpyridin-2-amine] it is greater than 10 µM.
For the compound `COc1ncc(Nc2ncc(C(C)(C)CO)cc2-c2nc(C)nc(N)n2)cc1F` [Example 311, 2-(5-(4-amino-6-methyl-1,3,5-triazin-2-yl)-6-(5-fluoro-6-methoxypyridin-3-ylamino)pyridin-3-yl)-2-methylpropan-1-ol], the IC50 was greater than 10 µM.
On to `Cc1nc(N)nc(-c2cc(C(C)(C)O)cnc2Nc2cncc(S(=O)(=O)c3ccccc3)c2)n1` [Example 356, 2-(5-(4-Amino-6-Methyl-1,3,5-Triazin-2-yl)-6-(5-(Phenylsulfonyl)Pyridin-3-Ylamino)Pyridin-3-yl)Propan-2-ol], for which the IC50 was found to be 7.12 µM.
As for `COc1ccc(Nc2ncc(N3CCOCC3)cc2-c2nc(C)nc3[nH]cnc23)cn1` [Example 97], the figure is greater than 10 µM; as for `Cc1nc(-c2cccnc2Nc2cnc(Cl)c(NS(C)(=O)=O)c2)c2nc[nH]c2n1` [Example 338, N-(2-Chloro-5-(3-(2-Methyl-9H-Purin-6-yl)Pyridin-2-Ylamino)Pyridin-3-yl)Methanesulfonamide], 0.017 µM.
As for `COc1ccc(Nc2ncc(C(C)(C)N)cc2-c2nc(C)nc(N)n2)cn1` [Example 277, 4-(5-(2-Aminopropan-2-yl)-2-(6-Methoxypyridin-3-Ylamino)Pyridin-3-yl)-6-Methyl-1,3,5-Triazin-2-Amine], the half-inhibitory concentration (IC50) stood at 0.517 µM.
With `Cc1nc(N)nc(-c2cc(C3CCOCC3)cnc2Nc2cnc(Cl)c(NS(C)(=O)=O)c2)n1` [Example 328, N-(5-(3-(4-Amino-6-Methyl-1,3,5-Triazin-2-yl)-5-(Tetrahydro-2H-Pyran-4-yl)Pyridin-2-Ylamino)-2-Chloropyridin-3-yl)Methanesulfonamide], the IC50 turned out to be 0.026 µM.
Regarding `COc1cccc(NCc2cnc(Nc3ccc(OC)nc3)c(-c3nc(C)nc4[nH]cnc34)c2)c1` [Example 78, 5-((3-methoxyphenylamino)methyl)-N-(6-methoxypyridin-3-yl)-3-(2-methyl-9H-purin-6-yl)pyridin-2-amine], the IC50 is greater than 10 µM.

Broadly, the IC50 is the concentration needed to halve the response being measured.
